Measured values as given in ChEMBL document CHEMBL3259811, “Synthesis and in vitro evaluation of bis-quaternary 2-(hydroxyimino)-N-(pyridin-3-yl)acetamide derivatives as reactivators against sarin and VX inhibited human acetylcholinesterase (hAChE)” (2014).

Protein sequences, listed by entry. Tags and fused reporters are not part of them. Lines headed by an entry give the natural chain unless they say otherwise; changes in a name come on top.
UniProt P22303: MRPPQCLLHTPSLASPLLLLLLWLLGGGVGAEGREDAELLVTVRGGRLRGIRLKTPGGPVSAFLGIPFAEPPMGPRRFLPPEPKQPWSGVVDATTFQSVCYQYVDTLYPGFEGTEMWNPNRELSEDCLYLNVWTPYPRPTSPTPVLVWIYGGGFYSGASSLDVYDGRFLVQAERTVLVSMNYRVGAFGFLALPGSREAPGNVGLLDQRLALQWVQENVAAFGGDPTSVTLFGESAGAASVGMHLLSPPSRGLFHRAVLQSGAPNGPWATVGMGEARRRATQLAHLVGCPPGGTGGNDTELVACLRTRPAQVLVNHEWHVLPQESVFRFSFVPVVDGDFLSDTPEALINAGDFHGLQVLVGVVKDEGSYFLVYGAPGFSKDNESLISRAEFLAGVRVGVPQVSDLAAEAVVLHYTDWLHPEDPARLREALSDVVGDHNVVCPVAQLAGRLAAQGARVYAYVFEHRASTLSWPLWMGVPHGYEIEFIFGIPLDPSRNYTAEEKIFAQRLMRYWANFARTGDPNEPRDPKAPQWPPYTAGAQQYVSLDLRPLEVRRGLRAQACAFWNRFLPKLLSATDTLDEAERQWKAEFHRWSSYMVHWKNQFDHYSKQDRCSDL

What was measured:
[1] = target: Acetylcholinesterase (Homo sapiens) (UniProt P22303); experiment: Reactivation of VX-inhibited hemoglobin free human erythrocyte ghost acetylcholinesterase using acetylthiocholineiodide as substrate assessed as rate constant for displacement of phosphoryl residue from phosphorylated enzyme-compound complex measured up to 1 hr by Ellman method
[2] = target: Acetylcholinesterase (Homo sapiens) (UniProt P22303); experiment: Reactivation of sarin-inhibited hemoglobin free human erythrocyte ghost acetylcholinesterase using acetylthiocholineiodide as substrate assessed as rate constant for displacement of phosphoryl residue from phosphorylated enzyme-compound complex measured up to 1 hr by Ellman method
[3] = target: Acetylcholinesterase (Homo sapiens) (UniProt P22303); experiment: Reactivation of VX-inhibited hemoglobin free human erythrocyte ghost acetylcholinesterase using acetylthiocholineiodide as substrate assessed as second order rate constant measured up to 1 hr by Ellman method
[4] = target: Acetylcholinesterase (Homo sapiens) (UniProt P22303); experiment: Reactivation of sarin-inhibited hemoglobin free human erythrocyte ghost acetylcholinesterase using acetylthiocholineiodide as substrate assessed as second order rate constant measured up to 1 hr by Ellman method
[5] = target: Acetylcholinesterase (Homo sapiens) (UniProt P22303); experiment: Reactivation of sarin-inhibited hemoglobin free human erythrocyte ghost acetylcholinesterase using acetylthiocholineiodide as substrate at 0.1 to 1 mM by Ellman method
[6] = target: Acetylcholinesterase (Homo sapiens) (UniProt P22303); experiment: Reactivation of sarin-inhibited hemoglobin free human erythrocyte ghost acetylcholinesterase using acetylthiocholineiodide as substrate measured up to 1 hr by Ellman method
[7] = target: Acetylcholinesterase (Homo sapiens) (UniProt P22303); experiment: Reactivation of VX-inhibited hemoglobin free human erythrocyte ghost acetylcholinesterase using acetylthiocholineiodide as substrate measured up to 1 hr by Ellman method
[8] = target: Acetylcholinesterase (Homo sapiens) (UniProt P22303); experiment: Reactivation of VX-inhibited hemoglobin free human erythrocyte ghost acetylcholinesterase using acetylthiocholineiodide as substrate at 0.1 to 1 mM by Ellman method

SMILES	K [1]	K [2]	K [3]	K [4]	Activity [5]	Activity [6]	Activity [7]	Activity [8]
O=C(/C=N\O)Nc1ccc[n+](CCCCCCC[n+]2cccc(NC(=O)/C=N\O)c2)c1	0.13 min⁻¹	0.12 min⁻¹	32.5 M⁻¹ s⁻¹	23.7 M⁻¹ s⁻¹				
O=C(/C=N/O)Nc1ccc[n+](Cc2ccc(C[n+]3cccc(NC(=O)/C=N/O)c3)cc2)c1	0.09 min⁻¹	0.09 min⁻¹	84 M⁻¹ s⁻¹	181 M⁻¹ s⁻¹				
O=C(/C=N\O)Nc1ccc[n+](CCCCCC[n+]2cccc(NC(=O)/C=N\O)c2)c1	0.07 min⁻¹	0.05 min⁻¹	66.2 M⁻¹ s⁻¹	36 M⁻¹ s⁻¹				
O=C(/C=N/O)Nc1ccc[n+](Cc2ccccc2C[n+]2cccc(NC(=O)/C=N/O)c2)c1	0.05 min⁻¹	0.05 min⁻¹	57.8 M⁻¹ s⁻¹	37.3 M⁻¹ s⁻¹				
C[n+]1ccccc1C=NO	0.11 min⁻¹	0.06 min⁻¹	59.8 M⁻¹ s⁻¹	37.2 M⁻¹ s⁻¹				
O=C(/C=N/O)Nc1ccc[n+](CC[n+]2cccc(NC(=O)/C=N/O)c2)c1	0.2 min⁻¹	0.05 min⁻¹	69.5 M⁻¹ s⁻¹	20.8 M⁻¹ s⁻¹				
O=C(/C=N/O)Nc1ccc[n+](Cc2cccc(C[n+]3cccc(NC(=O)/C=N/O)c3)c2)c1	0.12 min⁻¹	0.1 min⁻¹	36.2 M⁻¹ s⁻¹	36 M⁻¹ s⁻¹				
O=C(/C=N\O)Nc1ccc[n+](CCCCC[n+]2cccc(NC(=O)/C=N\O)c2)c1	0.07 min⁻¹	0.05 min⁻¹	62.7 M⁻¹ s⁻¹	25 M⁻¹ s⁻¹	tde	Dose-dependent effect	Dose-dependent effect	tde
O=C(/C=N\O)Nc1ccc[n+](CCC[n+]2cccc(NC(=O)/C=N\O)c2)c1	0.23 min⁻¹	0.06 min⁻¹	43.7 M⁻¹ s⁻¹	18.3 M⁻¹ s⁻¹				
O=C(/C=N\O)Nc1ccc[n+](CCCC[n+]2cccc(NC(=O)/C=N\O)c2)c1	0.23 min⁻¹	0.08 min⁻¹	43.8 M⁻¹ s⁻¹	24.3 M⁻¹ s⁻¹				
